Earlier results, collected in US7226619B1, “Material for controlling diversion of medications” (PharmoRx Inc., priority 2004, dated 2007).

The chains behind the UniProt entries cited, without tags or fusion partners.
UniProt P10635, whole entry: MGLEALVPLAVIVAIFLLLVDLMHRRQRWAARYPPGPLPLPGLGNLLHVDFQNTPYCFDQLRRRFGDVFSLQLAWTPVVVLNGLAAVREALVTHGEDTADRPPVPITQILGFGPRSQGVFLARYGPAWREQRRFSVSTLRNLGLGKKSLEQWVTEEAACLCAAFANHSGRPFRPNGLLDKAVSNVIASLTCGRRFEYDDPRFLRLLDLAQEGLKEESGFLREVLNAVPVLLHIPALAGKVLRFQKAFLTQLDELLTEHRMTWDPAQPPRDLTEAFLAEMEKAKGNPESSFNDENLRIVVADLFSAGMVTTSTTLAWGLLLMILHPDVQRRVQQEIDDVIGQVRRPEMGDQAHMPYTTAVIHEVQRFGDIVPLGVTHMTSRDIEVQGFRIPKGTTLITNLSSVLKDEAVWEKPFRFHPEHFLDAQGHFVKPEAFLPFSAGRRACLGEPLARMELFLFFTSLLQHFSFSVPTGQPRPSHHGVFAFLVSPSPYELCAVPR

Molecular target: 2D6 component of the P450 metabolic system (Homo sapiens, UniProt P10635)

inhibitor of 2D6 (in words): strong inhibitors
Structure (SMILES): CNCCC(Oc1ccc(C(F)(F)F)cc1)c1ccccc1 (stereo not shown) [fluoxetine]
